Drawing on ChEMBL document CHEMBL1275443, “Functional diversity among metallo-beta-lactamases: characterization of the CAR-1 enzyme of Erwinia carotovora” (2008), this text covers kcat/Km for four proteins.

Substrate in data set [1]: C[C@@H](O)[C@H]1C(=O)N2C(C(=O)O)=C(S[C@@H]3CN[C@H](C(=O)N(C)C)C3)[C@H](C)[C@H]12
Kind of data set: Ratio of Kcat to Km for Chryseobacterium meningosepticum beta-Lactamase GOB-1. As to conditions: Elizabethkingia meningoseptica.

Substrate in data set [2]: C[C@@H](O)[C@H]1C(=O)N2C(C(=O)O)=C(S[C@@H]3CN[C@H](C(=O)N(C)C)C3)[C@H](C)[C@H]12
As to the kind of experiment: Ratio of Kcat to Km for Pseudomonas maltophilia ULA-511 beta-Lactamase L-1. As to conditions: Stenotrophomonas maltophilia.

Substrate in data set [3]: C[C@@H](O)[C@H]1C(=O)N2C(C(=O)O)=C(S[C@@H]3CN[C@H](C(=O)N(C)C)C3)[C@H](C)[C@H]12
Kind of data set: Ratio of Kcat to Km for Caulobacter crescentus beta-Lactamase CAU-1. As to conditions: Caulobacter vibrioides.

Substrate in data set [4]: C[C@@H](O)[C@H]1C(=O)N2C(C(=O)O)=C(S[C@@H]3CN[C@H](C(=O)N(C)C)C3)[C@H](C)[C@H]12
As to the kind of experiment: Ratio of Kcat to Km for Janthinobacterium lividum THIN-B.

B1: GOB-1 metallo-beta-lactamase (Elizabethkingia meningoseptica), A4GRB7 (protein)
chain: MRNFATLFFMFICLGLNAQVVKEPENMPKEWNQTYEPFRIAGNLYYVGTYDLASYLIVTDKGNILINTGTAESLPIIKANIQKLGFNYKDIKILLLTQAHYDHTGALQDLKTETGAKFYADKADADVLRTGGKSDYEMGKYGVTFKPVTPDKTLKDQDKITLGNTILTLLHHPGHTKGSCSFIFETKDEKRKYRVLIANMPSVIVDKKFSEVTAYPNIQSDYAYTFKAMKNLDFDLWVASHASQFDLHEKRKEGDPYNPQLFMDKQSYFQNLNDLEKSYLDKIKKDSQDK
As for B1, the kcat/Km in data set [1] stood at 5.3 ×10⁶ /M/s.

B2: Beta-lactamase L1 (Stenotrophomonas maltophilia), P52700 (protein)
chain: MRSTLLAFALAVALPAAHTSAAEVPLPQLRAYTVDASWLQPMAPLQIADHTWQIGTEDLTALLVQTPDGAVLLDGGMPQMASHLLDNMKARGVTPRDLRLILLSHAHADHAGPVAELKRRTGAKVAANAESAVLLARGGSDDLHFGDGITYPPANADRIVMDGEVITVGGIVFTAHFMAGHTPGSTAWTWTDTRNGKPVRIAYADSLSAPGYQLQGNPRYPHLIEDYRRSFATVRALPCDVLLTPHPGASNWDYAAGARAGAKALTCKAYADAAEQKFDGQLAKETAGAR
B2: in data set [2], the kcat/Km came out at 4.5 ×10⁶ /M/s.

B3: Metallo-beta-lactamase (Caulobacter vibrioides), Q8KKG1 (protein)
chain: MKRLILAAAASLLALASAAHADDMPANWTKPTKPYRVVGNIYYVGTEGISSWLITSSEGHVVLDGGPNAETGKLVERNITALGFQLADVKILINTHAHYDHAGGLAQLKADTGAKLWISRDDAPAMAAGHHIGDNIYGPTPMPAAKPDRSFGDQTKLKLGEIAMVAHLTPGHTIGCTSWTTAVVEKGRPLTVTFPCSLSVAGNVLVGNKTHRTIVADYRASFAKLRAIPTDVMLPAHEEQGNLLAKRQKQLRGDPNAFVDPGELARFVDASEAAFNKELARQQAAGPNR
With B3, in data set [3], the kcat/Km stood at 2.6 ×10⁵ /M/s.

B4: THIN-B proetin (Janthinobacterium lividum), Q9AEF9 (protein)
chain: MTLLAKLMLATVATMSAATVQAKTPAPKPDTPVDCDSCKAWNGEVTPFNVFGNTWYVGTAGLSAVLVTSPQGHVLLDGALPQSAPLIIANIAALGFRIEDVKFILNSHAHWDHAGGIAALQAASGATVVASASGALGLQSGTNGKDDPQFQAKPVVHVAKVEKVKVVGEGDAIKLGPLNLTAHMTPGHTPGATTWTWTSCEGQRCLDVVYADSLNPYSSGDFTYTGKGDGPDISASFAASIAKVAALPCDIILSVHPDSTGVLDKAAKRSGEHNPFIDANACRAYAATADAMLTKRLAKERGVALPAAAPAAQHAH
As to B4, the kcat/Km in data set [4] turned out to be 5 ×10⁶ /M/s.
